# Experiment: Body weight of SHR rats during daily oral dosing
# Assay type: in vivo, rat
# Conditions: n=10, oral once daily, CM6271 300 mg/kg, hydralazine 5 mg/kg
# Source text: Figures in Table 1 represent mean±SD (standard deviation).
structure (smiles),measurement,setting,value
"NNc1nncc2ccccc12 [Hydralazine, hydralazine]",Body weight (g) Day 1,"Day 1 (first day of dosing), mean±SD",232.3 ± 16.1 g
same,Body weight (g) Day 8,"Day 8, mean±SD",246.0 ± 12.5 g

# Source: US20050180991A1, “Hypotensive agent and food” (priority 2004, published 2005)
